In ChEMBL document CHEMBL1131425 (J Med Chem, 1998) one finds Ki data, which are given here for one compound.

Sequences of proteins named here, by UniProt entry; tags and fusion partners are left off.
UniProt P14842, whole entry: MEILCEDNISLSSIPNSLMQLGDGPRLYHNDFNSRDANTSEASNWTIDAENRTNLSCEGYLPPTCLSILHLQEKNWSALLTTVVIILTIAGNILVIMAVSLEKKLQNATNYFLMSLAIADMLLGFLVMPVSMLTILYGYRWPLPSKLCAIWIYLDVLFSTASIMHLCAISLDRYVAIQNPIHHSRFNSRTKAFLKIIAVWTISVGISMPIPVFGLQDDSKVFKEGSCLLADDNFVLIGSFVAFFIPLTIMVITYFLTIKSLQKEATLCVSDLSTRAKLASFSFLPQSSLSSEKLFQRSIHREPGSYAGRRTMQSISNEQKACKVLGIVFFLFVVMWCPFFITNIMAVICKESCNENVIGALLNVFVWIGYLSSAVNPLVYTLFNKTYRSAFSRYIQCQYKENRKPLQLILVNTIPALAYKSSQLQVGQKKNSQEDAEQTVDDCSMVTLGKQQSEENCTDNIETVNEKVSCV

In experiment [1] the target is 5-hydroxytryptamine receptor 2A (Rattus norvegicus, UniProt P14842). The experiment in a line: Binding affinity against rat 5-hydroxytryptamine 2A receptor in NIH3T3 cells. The class given is cell-based.
The target in experiment [2] is T1, 5-hydroxytryptamine receptor 2C (Rattus norvegicus, UniProt P08909).
T1 sequence (P08909 whole entry): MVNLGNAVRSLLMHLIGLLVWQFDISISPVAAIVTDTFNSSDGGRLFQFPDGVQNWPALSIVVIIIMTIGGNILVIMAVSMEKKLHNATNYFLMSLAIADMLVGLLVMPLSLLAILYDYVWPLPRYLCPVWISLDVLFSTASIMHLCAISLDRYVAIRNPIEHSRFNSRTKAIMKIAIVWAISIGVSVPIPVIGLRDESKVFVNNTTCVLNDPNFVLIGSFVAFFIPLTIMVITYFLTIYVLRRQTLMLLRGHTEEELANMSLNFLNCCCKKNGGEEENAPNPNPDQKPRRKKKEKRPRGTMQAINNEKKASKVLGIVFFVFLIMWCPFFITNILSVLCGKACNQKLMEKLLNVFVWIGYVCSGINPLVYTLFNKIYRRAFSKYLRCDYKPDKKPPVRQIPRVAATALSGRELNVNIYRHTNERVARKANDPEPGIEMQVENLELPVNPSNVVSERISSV
Description: Binding affinity against rat 5-hydroxytryptamine 2C receptor in A-9 cells. The class given is cell-based. In short, it runs like this: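 A-9 cells expressing rat 5-HT2C grown to confluence, homogenized membranes (~10 μg protein) in pH 7.4 Tris/MgCl2/EDTA buffer; 1 nM [3H]mesulergine displaced by test agent, nonspecific defined by 10 μM mesulergine; 30 min at 37 °C, filtration, scintillation counting; Ki from three or more determinations.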

For orientation: Ki means the equilibrium dissociation constant of an inhibitor or competing ligand from its target. Low readings indicate tighter binding, high ones weaker binding. Regarding `O=C(CCCN1CCC2(CC1)C(=O)NCN2c1ccccc1)c1ccc(F)cc1` [SPIPERONE], the inhibition constant (Ki) in experiment [1] was determined as 1.8 nM; in experiment [2], 1600 nM.
